The chains behind the UniProt entries cited, without tags or fusion partners.
UniProt P34972, whole entry: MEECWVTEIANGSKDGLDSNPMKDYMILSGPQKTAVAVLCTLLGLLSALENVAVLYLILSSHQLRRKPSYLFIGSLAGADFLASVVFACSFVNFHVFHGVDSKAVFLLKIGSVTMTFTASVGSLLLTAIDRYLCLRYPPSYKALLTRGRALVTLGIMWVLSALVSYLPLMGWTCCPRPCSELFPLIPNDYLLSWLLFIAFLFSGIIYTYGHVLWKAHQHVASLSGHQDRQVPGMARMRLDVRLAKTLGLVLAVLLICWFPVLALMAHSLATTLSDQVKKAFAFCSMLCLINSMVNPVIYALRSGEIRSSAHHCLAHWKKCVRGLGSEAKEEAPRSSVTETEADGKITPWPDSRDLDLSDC

According to patent US9428431B2, “Compositions comprising CB receptor agonists, uses thereof and methods for their preparation” (Yissum Research Development Company of the Hebrew …, priority 2008, dated 2016):

Molecular target: T1, CB2 receptor (Homo sapiens, UniProt P34972)
T1 construct: expressed in transfected cells; host or cells: COS-7 cells
Test: CB2 receptor binding, [3H]HU-243 displacement, COS-7 cells transfected with CB2 cDNA
Protocol: For CB1 receptor binding, synaptosomal membranes were prepared from the brains of Sabra rats by homogenization and gradient centrifugation (Devane et al, 1992). For CB2 receptor binding assay, COS-7 cells were transfected with plasmids containing CB2 cDNA, and crude membranes were prepared (Munro et al, 1993).
Bound and free radioligands were separated by centrifugation. The data were normalized to 100% of specific binding, which was determined with 50 nM unlabeled HU-243.

For `CCCCCCC(C)(C)c1cc(OC)c([C@@H]2C=C(CO)C3CC2C3(C)C)c(OC)c1` (single isomer, unassigned; (-)) [HU-433, (−)-2-(3-myrtenyl)-5-dimethylheptyl resorcinol], the Ki was 12.2 nM.
